HCMV NEC inh – cytomegalovirus nuclear egress complex inhibition. HTRF UL50-UL53 interaction, normalized percent inhibition. inhibition, % (no concentration beside the values). hit rate 0.15% among 190,000; in the data active = inhibition above about 27%, passing the limit was not always enough
GIV Gai3 FP – blocks GIV peptide binding to rat Galpha-i3; Galpha-i3/FITC-GIV peptide fluorescence polarization, 90 min; stronger effect = lower value; scaled: aluminum fluoride 0%, vehicle 100%; P08753; hit rate 0.42% among 210,000; AID 1224905; percent of control (FP), % (test concentration not listed);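 active = replicate mean at 85% of control or lower, very high polarization wells dropped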;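 also: wells of about 15 µL received 100 nL stock; the first replicate is given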
* = called active by the depositor; . = not tested or not shown. Compounds with a hit are over-represented: about 0.43% of the library has one in this group of screens.

SMILES | HCMV NEC inh | GIV Gai3 FP
CCOC(=O)C1=C(C)OC(N)=C(C#N)C1c1cccc(C(F)(F)F)c1 (configuration not stated) | . | 100.0
N#CC1=C(N)SC(N)=C(C#N)C1c1cccs1 | -48.2 | -53.9*
CC(C)c1ccc(C2C(C#N)=C(N)SC(N)=C2C#N)cc1 | -24.6 | .
CCCn1c2ccccc2c2cnn(CC(=O)NCCN(C)C3CCCCC3)c(=O)c21 | -10.8 | 109.6
CCOC(=O)c1nn(-c2ccccc2)c(=O)cc1NC(C)C | -66.7 | 98.7
Nc1nc(COC(=O)c2ccc(S(=O)(=O)C(F)F)cc2)nc(Nc2ccccc2)n1 | -23.1 | .
COc1cc(/C=C2/C(=N)N3C(c4ccccc4)=CSC3=NC2=O)ccc1OCCOc1ccccc1C | . | 121.2
O=C(O)CN1C(=O)/C(=C\c2ccc(O)cc2)SC1=S | -123.7 | 195.9
CN(C)c1ccc(/C=C2/SC(=S)N(CC(=O)O)C2=O)cc1 | -19.5 | -60.8*
CC(C)N1Cc2cc(C(=O)NCCN3CCCCC3)sc2C1 | . | 100.3
CC(C)(C)C(=O)Nc1ccc(-c2nc3ccccc3s2)c(O)c1 | -12.6 | .
CC(C)(C)C(=O)Nc1ccc2c(c1)C(=O)C(=O)c1ccccc1-2 | 121.9* | .
COc1ccc(N2CCN(C(=O)c3ccc(OC)nc3OC)CC2)cc1 | -7.8 | .
Cc1cc(=O)n2[nH]c(CNc3ccccc3Cl)nc2n1 | -26.7 | 106.9
CCN(CC)c1ccc(/C=c2\sc3n(c2=O)C(c2ccc(OC)cc2OC)C(C(C)=O)=C(C)N=3)c(OC)c1 (configuration not stated) | -19.5 | 84.9*

Reprinted from the part before: three entries; new compounds follow.
SMILES | HCMV NEC inh | GIV Gai3 FP
COc1ccc(N2CCN(C(=O)c3ccc(OC)nc3OC)CC2)cc1 | -7.8 | .
Cc1cc(=O)n2[nH]c(CNc3ccccc3Cl)nc2n1 | -26.7 | 106.9
CCN(CC)c1ccc(/C=c2\sc3n(c2=O)C(c2ccc(OC)cc2OC)C(C(C)=O)=C(C)N=3)c(OC)c1 (configuration not stated) | -19.5 | 84.9*
COc1ccc(C2C(C(C)=O)=C(C)N=c3s/c(=C\c4cc(C)n(-c5ccccc5)c4C)c(=O)n32)c(OC)c1 (configuration not stated) | -20.6 | 141.9
CC1CCc2nc3ccccc3c(C(=O)O)c2C1 (configuration not stated) | -0.5 | 106.8
CCCOc1ccc(-c2nn3c(=O)c(NC(=O)c4ccccc4)cnc3o2)cc1 | . | 104.4
CCn1c(O)c(/C=c2/c(C)c(C#N)c3nc4ccccc4n3c2=O)n(CC)c1=S | . | -48.2*
CCc1c(C)c(C#N)c2nc3ccccc3n2c1NCCN(C)C | -13.8 | .
Cc1c(C#N)c2nc3ccccc3n2c(=O)/c1=C/NN1C(=O)CNC1=S | -24.8 | -30.7*
CCc1c(C)c(C#N)c2nc3ccccc3n2c1Nc1ccncc1 | . | 112.0
C=CCn1c(CCCN2C(=O)c3cccc4cccc(c34)C2=O)nnc1SCC(=O)NCc1cccnc1 | -48.0 | 101.1
COc1ccc(-c2noc(CNC(=O)C3CCC(=O)N3S(=O)(=O)c3ccc(C)cc3)n2)cc1 (configuration not stated) | 0.1 | 103.8
Cc1ccc(-c2noc(-c3ccccc3S(=O)(=O)NCCCN3CCCC3)n2)cc1 | . | 105.4
CCN(CC)c1ccc(/C=C(/C#N)C(=O)NC(C)C)o1 | -161.5 | -102.1*
CCN(CCC#N)c1ccc(/C=C(\C#N)C(=O)NC(C)C)c(C)c1 | -76.7 | .
O=c1c2ccc(NCCO)c3cccc(c32)c2nc3ccccc3n12 | . | -51.6*
O=C(O)c1ccc2c3c1cccc3c(=O)n1c3ccccc3nc21 | -57.3 | .
COc1ccc(/C=C2\C=C(c3ccccc3)N(c3ccc(C)c(C)c3)C2=O)cc1Br | . | 63.8*
COc1ccc(/C=C2\C=C(c3ccccc3)N(c3ccccc3)C2=O)cc1Br | . | 114.9
CN(C1=CC(=O)c2ccccc2C1=O)c1ccccc1 | 51.0 | .
COC1=CC(=O)c2ccccc2C1=O | 100.9* | 96.5
COc1ccc(N2C(=O)NC(=O)/C(=C\c3cc(Br)c(N4CCOCC4)o3)C2=O)cc1 | 0.3 | 110.8
O=C1NC(=O)N(c2ccc(Br)cc2)C(=O)/C1=C/c1ccc(N2CCOCC2)o1 | -112.8 | 16.3*
Clc1ccc(C2=CC(c3ccc(Br)cc3)n3ncnc3N2)s1 (configuration not stated) | . | -22.3*
Cc1ccsc1C1C=C(c2ccc(Br)cc2)Nc2ncnn21 (configuration not stated) | . | 96.8
C#CCn1c(=NC(=O)CN2C(=O)CCC2=O)sc2c3ccccc3ccc21 | -31.6 | 96.4
CCN(CC)c1ccc(C=C2C(=O)OC(c3ccccc3)OC2=O)cc1 (configuration not stated) | 9.1 | .
CN(C)c1ccc(C=C2C(=O)OC(C)(C(C)(C)C)OC2=O)cc1 (configuration not stated) | 1.1 | 16.8*
CCN(CC)c1ccc(C=C2C(=O)OC3(CCCC3)OC2=O)cc1 | 4.5 | -26.4*
CN(C)c1ccc(C=C2C(=O)OC(C)(C)OC2=O)cc1 | -25.2 | 115.4
CCNc1nc(C(N)=O)c(NC(=O)c2cc(-c3ccc(F)cc3)n(C)c2C)s1 | . | 108.1
O=C(CN1C(=O)c2ccccc2C1=O)N1CCN(c2ncnc3c2nnn3-c2cccc(F)c2)CC1 | . | 97.6
O=C1CC(=O)Nc2ccccc2N1 | -18.3 | 100.1
O=C1Cc2ccccc2C(=O)N1 | 100.1* | .
O=C(c1cc(-c2ccc(Br)cc2)n[nH]1)N1CCN(c2ccc(N3CCOCC3)nn2)CC1 | -11.3 | 100.3
CC(CC1C(C#N)=C(N)SC(N)=C1C#N)c1ccccc1 (configuration not stated) | -7.7 | -73.7*
CC(c1ccccc1)C1C(C#N)=C(N)SC(N)=C1C#N (configuration not stated) | -18.0 | 107.5
CCOc1ccc(NC(=O)c2sc(=S)n(-c3cccc(OC)c3)c2N)cc1 | . | 104.6
N#Cc1c(N)nc(SCC(=O)Nc2ccc([N+](=O)[O-])cc2)c(C#N)c1-c1ccco1 | -27.2 | 96.7
COc1ccc(-c2c(C#N)c(N)nc(SCC(=O)OCc3ccccc3)c2C#N)cc1 | 4.4 | 104.1
N#Cc1c(N)nc(SCC(=O)c2ccc(Br)cc2)c(C#N)c1-c1cccs1 | 40.3* | 100.5
N#Cc1c(N)nc(SCC(=O)Nc2ccccc2)c(C#N)c1-c1ccccc1 | 24.1* | 98.1
N#Cc1c(N)nc(SCC(=O)c2ccc(Br)cc2)c(C#N)c1-c1ccccc1 | 7.0 | 100.7
CCOc1ccc(-c2c(C#N)c(N)nc(SCC(=O)OC)c2C#N)cc1 | 73.1* | 105.0
CCOc1cc(C2CC(=O)NC(SCC(=O)Nc3cccc(Cl)c3C)=C2C#N)ccc1O (configuration not stated) | . | 109.0
CC(C)(C)C(=O)Nc1ccc(-c2nc3ccc(NC(=O)C(C)(C)C)cc3[nH]2)cc1 | 9.1 | 100.1
C=CC(=O)Nc1ccc(-c2nc3ccc(NC(=O)C=C)cc3[nH]2)cc1 | 53.8* | 111.1
Cc1ccc(C(=O)NC2(C(=O)Nc3c(C)cccc3C)CCC(C(C)(C)C)CC2)cc1 (configuration not stated) | . | 111.8

Structures from the list above that have a Cl atom (three):
SMILES | HCMV NEC inh | GIV Gai3 FP
Cc1cc(=O)n2[nH]c(CNc3ccccc3Cl)nc2n1 | -26.7 | 106.9
Clc1ccc(C2=CC(c3ccc(Br)cc3)n3ncnc3N2)s1 (configuration not stated) | . | -22.3*
CCOc1cc(C2CC(=O)NC(SCC(=O)Nc3cccc(Cl)c3C)=C2C#N)ccc1O (configuration not stated) | . | 109.0

Additional entries
SMILES | HCMV NEC inh | GIV Gai3 FP
COc1cccc2c1N=C1OC=CC1C2OC (configuration not stated) | 53.7* | .
Cc1ccc(Cl)cc1NC(=O)CSC1=C(C#N)C(c2ccco2)C2=C(CCCC2=O)N1 (configuration not stated) | . | 105.0
CCOC(=O)c1c(C)n(C)c2ccc(O)cc12 | -14.9 | 108.2
CCOC(=O)c1c2ccc(O)cc2n2ccccc12 | -48.7 | 69.0*
Cn1ccc(CN2CCC(N3CCCCC3)CC2)cc1=O | . | 103.0
COc1cc2c(cc1OC)C(c1ccccc1)CC(=O)N2 (configuration not stated) | 6.1 | 106.6
COc1cc2c(cc1OC)NC(=O)C2 | 63.6* | 96.8
Cc1ccc(-n2c(C)cc(/C=N/O)c2C)cc1 | -13.7 | 107.7
Cc1cc2c(cc1S(=O)(=O)N1CCN(C(=O)c3cccc(Cl)c3)CC1)OCC(=O)N2 | -22.2 | 112.0

From PubChem BioAssay
